In experiment [1] the target is mouse CRF receptor, type 2β (mouse) (UniProt Q60748). The experiment in a line: SPA competition with 0.05 nM [125I-Tyr0]Svg, HEK-293 membranes; 95% CI (25-59).
Experiment [2] addresses T1, rat CRF binding protein C-terminally fused with a His6 sequence (rat) (UniProt P24388).
T1 sequence: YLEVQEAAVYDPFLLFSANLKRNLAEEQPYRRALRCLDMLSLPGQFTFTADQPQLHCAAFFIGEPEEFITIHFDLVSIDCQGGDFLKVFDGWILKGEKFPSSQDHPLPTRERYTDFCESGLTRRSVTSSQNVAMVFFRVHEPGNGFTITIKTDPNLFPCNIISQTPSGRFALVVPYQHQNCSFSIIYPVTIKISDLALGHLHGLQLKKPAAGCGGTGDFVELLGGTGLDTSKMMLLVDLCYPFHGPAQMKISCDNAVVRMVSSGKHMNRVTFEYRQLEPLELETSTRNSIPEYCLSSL
The experiment in a line: SPA competition with 0.1 nM [125I-Tyr0]h/rCRF, His-tagged rCRFBP; 95% CI (0.38-0.71).

In experiment [3] the target is T1, rat CRF binding protein C-terminally fused with a His6 sequence (rat). The experiment in a line: SPA competition with 0.1 nM [125I-Tyr0]h/rCRF, His-tagged rCRFBP; 95% CI (420-530).

The values below come from patent publication US20040049009A1, “Methods for improving the antagonistic/agonistic properties of peptidic antagonists/agonists of the corticotropin-releasing factor receptor (crfr)” (priority 2000, published 2004).

One may read the IC50 as the point on the concentration scale where inhibition reaches its midpoint.

On to SEEPPISLDLTFHLLREVLEMARAEQLAQQAHSNRKLMEII (ligand) [human/rat corticotropin-releasing factor], for which the IC50 turned out to be 42 nM in experiment [1] and 0.54 nM in experiment [2].

SQEPPISLDLTFHLLREVLEMTKADQLAQQAHSNRKLLDIA (ligand, UniProt P01142 148-188, looked up, Corticoliberin) [ovine corticotropin-releasing factor]: the IC50 in experiment [3] is 470 nM.
